Test results published in ChEMBL document CHEMBL1949658, “3D-QSAR and 3D-QSSR models of negative allosteric modulators facilitate the design of a novel selective antagonist of human α4β2 neuronal nicotinic acetylcholine receptors” (Bioorg Med Chem Lett, 2012).

Organism: Homo sapiens
Assay: Selectivity ratio of pIC50 for human nAChR alpha3/beta4 receptor to pIC50 for human nAChR alpha4/beta2 receptor

In the case of `COc1ccc(OCCCCCN2CCCC(COC(=O)c3ccccc3-c3ccccc3)C2)cc1` (stereo unspecified), the Ratio pIC50 is reported as 0.19.
